Results: patent publication US8551509B2, “Skin agent for external use and cosmetic agent including ubiquinone derivative or salt thereof and method using the same” (Showa Denko K.K., priority 2006, dated 2013)

Tested on: Normal human skin fibroblast cells NB1RGB
Test: Administration test to skin cells (concentration in cells by HPLC)
Conditions: NB1RGB cells cultured 3 days in medium containing the substance; estimated from the volume of recovered cells

Concentration in cells after culture: Ubiquinol: 78 µg/mL | Concentration in cells after culture: Ubiquinol-1,4-diphosphoric acid: 241 µg/mL | Concentration in cells after culture: Ubiquinone: 14 µg/mL
Substance: tetrapotassium ubiquinol-1,4-diphosphate
